This data set concerns the molecule itself. Description: SEC. In general terms: Size exclusion chromatography separates by hydrodynamic size, large species first.

B1: 3×Lys-MxEnc (natural protein, Myxococcus xanthus)
chain: MPDFLGHAENPLREEEWARLNETVIQVARRSLVGRRILDIYGPLGAGVQTVPYDEFQGVSPGAVDIVGEQETAMVFTDARKFKTIPIIYKDFLLHWRDIEAARTHNMPLDVSAAAGAAALCAQQEDELIFYGDARLGYEGLMTANGRLTVPLGDWTSPGGGFQAIVEATRKLNEQGHFGPYAVVLSPRLYSQLHRIYEKKKVLEIETIRQLASDGVYQSNRLRGESGVVVSTGRENMDLAVSMDMVAAYLGASRMNHPFRVLEALLLRIKHPDAICTLEGAGATERR
As to B1, the binding result is recorded as “binds”.

The values above are taken from publication PMC11098114 (Proceedings of the National Academy of Sciences of the …, 2024).
